In general, inhibition refers to the change of the read-out against control, counted positive when it falls.

Sequences of proteins named here, by UniProt entry; tags and fusion partners are left off.
UniProt O00206, whole entry: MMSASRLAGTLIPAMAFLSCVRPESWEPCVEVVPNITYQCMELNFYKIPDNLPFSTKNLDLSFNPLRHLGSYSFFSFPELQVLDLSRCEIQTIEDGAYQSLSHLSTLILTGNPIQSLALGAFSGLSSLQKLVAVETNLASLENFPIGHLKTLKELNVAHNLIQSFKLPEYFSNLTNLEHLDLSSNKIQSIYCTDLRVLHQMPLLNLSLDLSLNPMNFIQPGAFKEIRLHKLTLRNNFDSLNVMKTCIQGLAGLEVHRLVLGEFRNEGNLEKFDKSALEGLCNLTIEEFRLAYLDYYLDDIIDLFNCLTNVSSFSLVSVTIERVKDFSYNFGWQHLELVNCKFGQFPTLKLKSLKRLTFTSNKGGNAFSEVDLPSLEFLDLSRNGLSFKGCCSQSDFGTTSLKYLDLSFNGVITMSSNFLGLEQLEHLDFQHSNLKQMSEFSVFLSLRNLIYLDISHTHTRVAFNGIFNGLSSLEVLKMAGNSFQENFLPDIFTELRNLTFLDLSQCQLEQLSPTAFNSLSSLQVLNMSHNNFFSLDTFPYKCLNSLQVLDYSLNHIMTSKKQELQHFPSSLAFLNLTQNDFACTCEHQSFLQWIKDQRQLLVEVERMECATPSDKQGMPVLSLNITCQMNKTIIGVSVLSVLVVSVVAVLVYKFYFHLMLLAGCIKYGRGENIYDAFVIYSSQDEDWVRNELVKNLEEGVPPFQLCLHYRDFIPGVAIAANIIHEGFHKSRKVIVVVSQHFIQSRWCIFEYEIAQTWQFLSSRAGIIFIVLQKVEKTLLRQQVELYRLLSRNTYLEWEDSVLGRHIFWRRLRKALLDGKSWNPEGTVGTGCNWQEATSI

This is a selection; strong and weak results do not stand in their true shares. Calls of active or inactive are those of the source. Cut-off read from the data, not from the text of the source: active = inhibition above about 25%; inactive = the rest.

The assay deals with Toll-like receptor 4 (Homo sapiens) + Myeloid differentiation primary response protein MyD88 (Homo sapiens) (UniProt O00206+Q99836). In words: disruptors of TLR4 binding to MyD88 – cell-based, HeLa CL3-4, BLA complementation, FRET ratio, primary screen (AID 861).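 Note: 0% = vehicle and 100% = reference inhibitor.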 Particulars: HeLa CL3-4 TLR4/MyD88 BLA complementation, at 8.4 µM, hits give high values.
On to `CCc1ccc(OP(C)(=O)O)cc1`, for which the inhibition is inactive: -5.16%.

Values taken from PubChem BioAssay AID861 (The Scripps Research Institute Molecular Screening Center, 2007).
